Test results as given in patent US8076375B2 (priority 2005, dated 2011).

Assays:
[1] = test system: Lck (activated F505 form); assay: Lck autophosphorylation kinase assay; format: biochemical
[2] = at the tested doses; cited from earlier work

Cc1nn(-c2ccc(S(=O)(=O)O)cc2)c(O)c1N=Nc1ccc(-c2ccc(N=Nc3ccc4c(S(=O)(=O)O)cc(S(=O)(=O)O)c(N)c4c3O)c(O)c2)cc1O
Effect on Lck activity (in words) ([1]; 10 μM): minimally inhibited | Percent Lck activity remaining ([1]; 10 μM inhibitor): 45% | Toxic effects in mammals [2]: no toxic effects were observed
